Data taken from the SangsterLogP compilation.

O=C1NC(=O)C(c2ccccc2)N1 (stereo unspecified)
logP: 0.51
